Patent publication US10245262B2, “Immunological reagents and uses therefor” (THE UNIVERSITY OF QUEENSLAND, priority 2014, dated 2019)

Assays:
[1] = test system: human MAIT cells present in PBMCs; assay: Tetramer staining of human PBMCs; assay type: cell-based; conditions: tetramers at 1.4 μg/ml
Experimental: For co-staining with wild-type and K43A-MR1 tetramers, approximately 5×10^5 human PBMCs were stained with K43A-MR1-5-OP-RU-PE tetramer at 20 μg/ml for 40 minutes at room temperature in the dark. Cells were then washed and stained with w.t. MR1-5-OP-RU-BV tetramer at 1.4 μg/ml, CD3-AlexaFluor700 (EBioscience), CD161-PE-Cy7 (Biolegend), CD4-APC-Cy7 (Biolegend) and CD8α-PerCp-Cy5.5 (BD) for 30 minutes at 4° C. Cells were then washed once with 2 ml of FACS wash (2% fetal bovine serum in PBS) and resuspended in 150 μl of FACS fix (2% glucose and 1% paraformaldehyde in PBS) prior to acquisition of data on a BD LSR-Fortessa. Data were analyzed using FlowJo analysis software (Tree Star, Ashland, Oreg.).
For single staining with either MR1-5-OP-RU or MR1-5-OE-RU tetramers, human PBMCs were stained as above with w.t. MR1-5-OP-RU-PE or w.t. MR1-5-OE-RU-PE tetramers at 1.4 ug/ml, and CD3-AlexaFluor700 (EBioscience), CD161-PE-Cy7 (Biolegend), CD4-APC-Cy7 (Biolegend) and CD8α-PerCp-Cy5.5 (BD) for 30 minutes at 4° C., prior to acquisition of data on a BD LSR-Fortessa.

MAIT cells = assay: Detection of MAIT cells in mice using MR1-tetramers; conditions: uninfected C57BL/6 mice
Source text: FIG. 16 is a schematic showing detection of MAIT cells in mice using MR1-tetramers. Representative plots showing MAIT cell percentages among TCRβ^+ lymphocytes in a range of organs from uninfected C57BL/6 and MR1^−/− mice. MAIT cells are defined here as TCRβ^+Tetramer^+ cells. “MR1-Tetramer”=mouse MR1-5-OP-RU tetramers. Numbers represent MAIT cells as a percentage of TCRβ^+ lymphocytes.

Row | Substance | staining of human MAIT cells [1] | detection of MAIT cells in organs (MAIT cells)
1 | MR1-5-OE-RU: human MR1 refolded with 5-A-RU and glyoxal, biotinylated and tetramerized with streptavidin | efficiently stained all human MAIT cells present in PBMCs | 
2 | MR1-5-OP-RU tetramers: mouse MR1-5-OP-RU tetramers used to detect MAIT cells in mice |  | can be used to detect MAIT cells in many organs of wt mice
3 | MR1-5-OP-RU: human MR1 refolded with 5-A-RU and methylglyoxal, biotinylated and tetramerized with streptavidin | efficiently stained all human MAIT cells present in PBMCs | 
